Source: ChEMBL document CHEMBL5325419, “Design, synthesis and biological evaluation of novel thiosemicarbazones as cruzipain inhibitors” (Eur J Med Chem, 2023)

Protein sequences, listed by entry. Tags and fused reporters are not part of them. Lines headed by an entry give the natural chain unless they say otherwise; changes in a name come on top.
UniProt P25779: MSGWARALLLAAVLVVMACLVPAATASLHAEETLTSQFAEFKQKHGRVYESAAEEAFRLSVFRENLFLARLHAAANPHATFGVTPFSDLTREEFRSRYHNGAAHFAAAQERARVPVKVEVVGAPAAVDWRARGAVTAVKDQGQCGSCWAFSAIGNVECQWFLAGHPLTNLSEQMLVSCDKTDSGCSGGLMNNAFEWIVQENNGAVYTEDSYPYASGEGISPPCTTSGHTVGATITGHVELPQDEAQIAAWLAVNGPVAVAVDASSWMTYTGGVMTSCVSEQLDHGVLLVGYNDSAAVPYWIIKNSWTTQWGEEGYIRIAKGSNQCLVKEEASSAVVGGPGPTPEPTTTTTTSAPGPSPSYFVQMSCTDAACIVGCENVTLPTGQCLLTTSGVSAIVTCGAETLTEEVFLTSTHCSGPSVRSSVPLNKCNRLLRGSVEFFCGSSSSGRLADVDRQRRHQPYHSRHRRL

Tests used:
Cruzipain [1] = molecular target: T1, Cruzipain (Trypanosoma cruzi, UniProt P25779); test: Inhibition of recombinant Trypanosoma cruzi Cruzipain using Z-Phe-Arg-AMC as substrate preincubated for 5 mins followed by substrate addition by spectrofluorometry analysis
Cruzipain [2] = molecular target: T1, Cruzipain; test: Inhibition of recombinant Trypanosoma cruzi Cruzipain using Z-FR-AMC as substrate preincubated for 20 mins followed by substrate addition and measured for 45 mins by fluorescence analysis

CC/C(=N\NC(N)=S)c1cccc(Br)c1
IC50 (Cruzipain [1]): 176 nM
IC50 (Cruzipain [2]): 176 nM
